Reference: patent publication US20240376128A1, “N-CYCLOPROPYLPYRIDO [4, 3-D] PYRIMIDIN-4-AMINE DERIVATIVES AND USES THEREOF” (Jacobio Pharmaceuticals Co., Ltd., priority 2021, published 2024)
Like-named read-outs stand apart in the source and are kept apart here.

By UniProt entry, the sequences of proteins in these tests, tags left out. Where a name states a change or a piece, a line headed by the entry shows the natural chain unless it says otherwise.
UniProt P01116: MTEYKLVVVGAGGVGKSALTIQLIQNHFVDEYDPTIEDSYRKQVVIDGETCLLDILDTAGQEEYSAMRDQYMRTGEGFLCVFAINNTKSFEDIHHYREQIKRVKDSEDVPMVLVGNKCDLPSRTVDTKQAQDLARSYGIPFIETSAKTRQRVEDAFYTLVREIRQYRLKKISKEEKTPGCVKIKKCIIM

How the values were obtained:
[1] = test system: NCI-H747 cell line (K-Ras G13D); experiment: Phospho-ERK1/2(THR202/TYR204) HTRF assay; assay type: cell-based; settings: Homo sapiens; NCI-H747 cells (K-Ras G13D), 2 hours incubation; read-out: p-ERK, IC50(nM) NCI-H747
[2] = molecular target: K-Ras G13D (Homo sapiens, UniProt P01116, G13D); experiment: GTP-K-Ras (GppNp-K-Ras) and cRAF interaction assay, HTRF; settings: read-out: Biochemical assays, IC50, K-Ras G13D GppNp
Source text: GppNp is an analog of GTP.

[3] = test system: K-Ras mutant and K-Ras WT cell lines indicated in Table 20; experiment: 3D cell growth inhibition assay (CellTiter-Glo 3D, 6 days); assay type: cell-based; settings: Homo sapiens, 144 h
[4] = test system: AGS cell line (K-Ras G12D); experiment: Phospho-ERK1/2(THR202/TYR204) HTRF assay; assay type: cell-based; settings: Homo sapiens; AGS cells (K-Ras G12D), 2 hours incubation; read-out: p-ERK, IC50(nM) AGS
[5] = molecular target: K-Ras G12D (Homo sapiens, UniProt P01116, G12D); experiment: SOS1 catalyzed nucleotide exchange assay (GDP form K-Ras), TR-FRET; settings: read-out: Biochemical assays, IC50, K-Ras G12D GDP
[6] = test system: SW620 cell line (K-Ras G12V); experiment: Phospho-ERK1/2(THR202/TYR204) HTRF assay; assay type: cell-based; settings: Homo sapiens, SW-620; SW620 cells (K-Ras G12V), 2 hours incubation; read-out: p-ERK, IC50(nM) SW620
[7] = test system: NCI-H358 cell line (K-Ras G12C); experiment: Phospho-ERK1/2(THR202/TYR204) HTRF assay; assay type: cell-based; settings: Homo sapiens; NCI-H358 cells (K-Ras G12C), 2 hours incubation; read-out: p-ERK, IC50(nM) NCI-H358
[8] = Capan-2 (K-Ras G12V), absolute IC50, read-out: Cell Growth Inhibition, IC50, Capan-2
[9] = NCI-H747 (K-Ras G13D), absolute IC50, read-out: Cell Growth Inhibition, IC50, NCI-H747

Compound: [2H]C([2H])([2H])N(c1nc(OC[C@@]23CCCN2C[C@H](F)C3)nc2c(F)c(-c3cc(O)cc4ccc(F)c(C#C)c34)ncc12)C1CC1 [Compound 4, 4-(4-(cyclopropyl(methyl-d3)amino)-8-fluoro-2-(((2R,7aS)-2-fluorotetrahydro-1H-pyrrolizin-7a(5H)-yl)methoxy)pyrido[4,3-d]pyrimidin-7-yl)-5-ethynyl-6-fluoronaphthalen-2-ol]
- IC50 [1]: 11.5 nM
- IC50 [2]: 13.7 nM
- IC50 [3, 8]: 72.1 nM
- IC50 [3, 9]: 59.6 nM
- IC50 [4]: 27 nM
- IC50 [5]: 3.41 nM
- IC50 [6]: 10 nM

Compound: C#Cc1c(F)ccc2cc(O)cc(-c3ncc4c(N(C)[C@@H]5C[C@H]5F)nc(OC[C@@]56CCCN5C[C@H](OC)C6)nc4c3F)c12 (mixture of isomers) [Compound 5, 5-ethynyl-6-fluoro-4-(8-fluoro-4-((trans-2-fluorocyclopropyl)(methyl)amino)-2-(((2R,7aS)-2-methoxytetrahydro-1H-pyrrolizin-7a(5H)-yl)methoxy)pyrido[4,3-d]pyrimidin-7-yl)naphthalen-2-ol]
- IC50 [7]: 17.4 nM
- IC50 [1]: 26.2 nM
- IC50 [2]: 6.29 nM
- IC50 [3, 8]: 124 nM
- IC50 [3, 9]: 89.1 nM
- IC50 [5]: 2.84 nM
- IC50 [6]: 7.37 nM
